Data published in patent US20140255392A1 (BAYER INTELLECTUAL PROPERTY GMBH, priority 2011, published 2014).
pIC50: −log10 of the molar value.

The chains behind the UniProt entries cited, without tags or fusion partners.
UniProt P33981, whole entry: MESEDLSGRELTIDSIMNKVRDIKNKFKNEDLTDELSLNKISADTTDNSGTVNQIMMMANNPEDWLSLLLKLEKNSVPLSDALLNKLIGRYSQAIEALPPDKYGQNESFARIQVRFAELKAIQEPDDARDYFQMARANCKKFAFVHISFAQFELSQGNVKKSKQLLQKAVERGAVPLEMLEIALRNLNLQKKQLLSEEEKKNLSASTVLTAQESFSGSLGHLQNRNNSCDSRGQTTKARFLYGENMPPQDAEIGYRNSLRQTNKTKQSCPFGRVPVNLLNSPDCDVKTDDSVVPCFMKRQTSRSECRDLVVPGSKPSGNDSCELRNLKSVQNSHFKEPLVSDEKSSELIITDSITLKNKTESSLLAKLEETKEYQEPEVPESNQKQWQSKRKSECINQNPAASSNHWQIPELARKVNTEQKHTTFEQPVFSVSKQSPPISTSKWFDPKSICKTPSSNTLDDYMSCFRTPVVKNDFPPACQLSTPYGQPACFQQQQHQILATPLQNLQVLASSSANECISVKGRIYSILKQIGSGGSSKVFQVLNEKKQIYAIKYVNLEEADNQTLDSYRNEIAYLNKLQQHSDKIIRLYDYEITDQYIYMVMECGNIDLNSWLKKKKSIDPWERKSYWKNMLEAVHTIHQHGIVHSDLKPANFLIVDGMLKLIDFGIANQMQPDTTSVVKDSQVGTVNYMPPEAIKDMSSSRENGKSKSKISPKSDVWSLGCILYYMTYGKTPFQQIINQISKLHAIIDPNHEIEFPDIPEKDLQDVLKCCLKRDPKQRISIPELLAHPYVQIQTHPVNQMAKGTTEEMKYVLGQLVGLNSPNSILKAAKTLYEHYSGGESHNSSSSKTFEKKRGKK

Biological target: human kinase Mps-1 (Homo sapiens, UniProt P33981)
Test: Mps-1 kinase assay (TR-FRET)
Details: read-out: Mps-1 IC50; N-terminally GST-tagged human full length recombinant Mps-1; 10 μM ATP; 1 μM peptide substrate; 60 min at 22° C.

Compound Cc1cc(-c2cnc3c(NCCC(F)(F)F)cc(Oc4cccc(F)c4)cn23)ccc1C(=O)NC1(C#N)CCC1 has a pIC50 of 7.39.
